pIC50: −log10 of the molar value.
What was measured:
Pig sEH = Pig sEH (Sus scrofa (Pig), UniProt Q6Q2C2); experiment: sEH inhibitor screen of domestic animals; MNPC on recombinant enzyme; assay type: biochemical
[1] = system: horse with pain due to laminitis; experiment: Pain (VAS) and blood pressure in one horse with naturally occurring laminitis, multimodal analgesic therapy; assay type: in vivo
Source text: Soft Ride boots were applied bilaterally.

Protein sequences, listed by entry. Tags and fused reporters are not part of them. Residues count along the entry.
UniProt Q6Q2C2, whole entry: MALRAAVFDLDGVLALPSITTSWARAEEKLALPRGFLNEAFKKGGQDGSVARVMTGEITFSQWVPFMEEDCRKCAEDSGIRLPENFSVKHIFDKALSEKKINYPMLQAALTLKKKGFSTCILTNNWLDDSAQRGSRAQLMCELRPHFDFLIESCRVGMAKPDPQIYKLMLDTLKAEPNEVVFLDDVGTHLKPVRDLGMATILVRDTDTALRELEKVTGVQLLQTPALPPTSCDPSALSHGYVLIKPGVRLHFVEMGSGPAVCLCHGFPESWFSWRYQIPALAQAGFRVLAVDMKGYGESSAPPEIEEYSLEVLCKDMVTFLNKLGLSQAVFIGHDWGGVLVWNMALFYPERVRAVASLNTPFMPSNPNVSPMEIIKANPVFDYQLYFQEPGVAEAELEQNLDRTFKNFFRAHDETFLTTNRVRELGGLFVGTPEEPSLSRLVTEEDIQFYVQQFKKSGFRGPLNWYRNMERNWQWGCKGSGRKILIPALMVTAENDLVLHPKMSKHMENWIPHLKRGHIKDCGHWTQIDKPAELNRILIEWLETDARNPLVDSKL
UniProt A0A8I3NJL8, 1-556: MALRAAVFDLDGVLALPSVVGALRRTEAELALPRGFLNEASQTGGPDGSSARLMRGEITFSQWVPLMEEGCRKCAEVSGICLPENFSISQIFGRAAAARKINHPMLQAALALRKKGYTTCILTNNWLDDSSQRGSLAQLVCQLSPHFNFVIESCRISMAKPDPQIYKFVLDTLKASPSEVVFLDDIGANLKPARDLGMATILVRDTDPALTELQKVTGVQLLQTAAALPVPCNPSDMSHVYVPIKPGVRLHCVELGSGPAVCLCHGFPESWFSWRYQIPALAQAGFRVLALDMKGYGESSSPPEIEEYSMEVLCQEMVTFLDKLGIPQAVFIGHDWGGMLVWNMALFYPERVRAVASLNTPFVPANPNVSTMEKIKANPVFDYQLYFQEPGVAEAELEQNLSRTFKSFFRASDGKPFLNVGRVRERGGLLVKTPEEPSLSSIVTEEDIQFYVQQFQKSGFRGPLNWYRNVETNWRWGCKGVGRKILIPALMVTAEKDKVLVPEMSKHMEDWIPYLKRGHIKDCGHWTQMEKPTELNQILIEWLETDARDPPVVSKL

Canine sEH = Canine sEH (Canis lupus familiaris, UniProt A0A8I3NJL8); experiment: sEH Inhibitor Screen of Canine sEH; assay type: biochemical; details: [I] = 100 nM

| Structure (SMILES) | pIC50 (Pig sEH) | average VAS pain score ([1]; day 8, after first dose of t-TUCB 0.1 mg/kg IV, VAS 0=no pain, 10=worst possible pain, with phenylbutazone and gabapentin) | blood pressure following t-TUCB administration ([1]; hypertensive laminitic horse, t-TUCB 0.1 mg/kg once daily IV) | Pain scores following t-TUCB administration ([1]; t-TUCB 0.1 mg/kg once daily IV, days 8 to 12) | inhibition at 0.1 µM (Canine sEH) |
| --- | --- | --- | --- | --- | --- |
| O=C(O)CCCCCCCCCCCNC(=O)NC12CC3CC(CC(C3)C1)C2 [compound 700, 12-(3-adamantan-1-yl-ureido) dodecanoic acid] | 7.96 |  |  |  |  |
| O=C(Nc1ccc(OC(F)(F)F)cc1)N[C@H]1CC[C@H](Oc2ccc(C(=O)O)cc2)CC1 [compound 1728] |  | 5.5 | progressively decreased to physiologic normal values | decreased sharply and remarkably | 92% |
